Data: article PMC5606850, “Acidic C-terminal domains autoregulate the RNA chaperone Hfq” (eLife, 2017)

Tests used:
Hfq-sCTD = assay: RNA binding to Hfq-sCTD, fluorescence anisotropy; set-up: species or system E. coli; conditions: dsRNA product (D16-FAM·R16) versus ssRNA substrate (D16-FAM)
[1] = test system: RNA molecular beacon and Target RNA; assay: RNA annealing kinetics (molecular beacon and Target RNAs), stopped-flow fluorescence; format: biochemical; conditions: all RNA targets (Target, Target-U6, Target-A18), 30 °C
Experimental: (§1) Figure 2. CTD and RNA occupy the same rim binding site. […] The CTD linker is shown in purple, the acidic tip in red and the N-terminal FITC as a yellow star. Hfq core is shown in cyan, with basic rim patches in dark blue. […] (C) Reaction scheme for annealing an RNA molecular beacon to a target RNA (open bar) ([Hopkins et al., 2011]; [Panja et al., 2015]). (D) Progress curves for annealing 50 nM molecular beacon and 100 nM Target by 50 nM Hfq65 hexamer at 30°C, measured by stopped-flow fluorescence. See Figure 2—figure supplement 3 for further data. (E) Contribution of core residues to CTD binding. […] Annealing of 100 nM Target RNA to 50 nM beacon RNA by Hfq65 and Hfq65 variants was measured by stopped flow fluorescence at 30°C in 1 × TNK buffer. […] The change in fluorescence emission intensity was normalized to the maximum fluorescence within an experiment. […]
To determine how much core residues that bind the CTD contribute to Hfq’s RNA annealing activity, we compared the effect of rim mutations on the rate of base pairing between an RNA molecular beacon and the 16 nt Target RNA by stopped-flow fluorescence spectroscopy (Figure 2C) ([Hopkins et al., 2011]). […]

D16-FAM·R16 = assay: anisotropy time-course of D16-FAM·R16 binding, annealing and release; format: biochemical; conditions: 50 nM D16-FAM, 50 nM Hfq hexamer, then 50 nM R16, TNK buffer, 30 °C, three trials
Experimental: (§2) Figure 4. Shortening the CTD increases auto-inhibition by acidic residues. (A) Observed annealing rate constants for 100 nM target RNA and 50 nM molecular beacon with 0–200 nM Hfq hexamer at 30°C, measured by stopped-flow fluorescence. Black, Hfq102; red, Hfq-sCTD; cyan, Hfq65. (B) Fluorescence anisotropy assay for RNA binding and release. In stopped-flow FRET experiments, the dsRNA is released after pairing with its complementary strand ([Panja et al., 2013]; [Santiago-Frangos et al., 2016]). […] Remaining RNA was displaced from Hfq by excess ssDNA (400 nM DNA2). The averages and standard deviations for three trials are plotted for each Hfq variant. […] (D) Annealing of 5 nM ^32P-ChiX sRNA with 30 nM chiP mRNA without Hfq, or with Hfq65, Hfq102 or Hfq-sCTD, as indicated above each lane. Samples were loaded on a native polyacrylamide gel 60 min or 20 s after the components were mixed. […] (E) Fractions of free ChiX (black), ChiX·chiP dsRNA (light grey), ChiX·Hfq·chiP ternary complex (hatched) and ChiX·Hfq binary complex (dark grey) after 4 min of annealing, as analyzed by EMSA (Figure 4—figure supplement 2). […] Annealing of 100 nM Target RNA to 50 nM beacon RNA by Hfq variants was measured by stopped flow fluorescence at 30°C in 1 × TNK buffer. […] The change in fluorescence emission intensity was normalized to the maximum fluorescence within an experiment. […]

ChiX sRNA and chiP mRNA = assay: ChiX sRNA-chiP mRNA annealing, EMSA; format: biochemical, E. coli; conditions: 10 °C
Experimental: as §2

[2] = SDS-PAGE oligomerization of purified Hfq variants; format: physicochemical, E. coli; conditions: 4–20% SDS-PAGE, ~2.8 µg protein, 2% SDS, boiled
Experimental: as §1, with “binding. Interaction energy (Expected Energetic Contribution; EEC) in silico for a core residue in the Rosetta models (solid symbols and solid line; adjusted R^2 = 0.77) or the average annealing rates for Target and Target-A18 relative to Hfq65 (open symbols and dashed line; adjusted R^2 = 0.94) versus experimental CTD binding energy (∆∆G°) for each Hfq65 variant. The binding energy, ∆∆G° = –RTln(Kd^MUT/Kd), reflects the perturbation to CTD binding by a mutation in Hfq65.” for “binding.”

B1: Hfq-sCTD (protein)
chain: MAKGQSLQDPFLNALRRERVPVSIYLVNGIKLQGQIESFDQFVILLKNTVSQMVYKHAISTVVPSRPVSHHSNNAGGGTSSNYHHDSEETE
Krel = Kd(P)/Kd(S), Hfq-sCTD (Hfq-sCTD): 14.0
annealing rates relative to Hfq102 [1]: decreased annealing rates relative to Hfq102 for all RNA targets
release of annealed dsRNA (D16-FAM·R16) from Hfq (D16-FAM·R16): more dsRNA was released when the CTD is shortened
time to form ternary complex with ChiX and chiP (ChiX sRNA and chiP mRNA; 5 nM ChiX, 30 nM chiP): ≤ 20 s
stability of ChiX·Hfq·chiP ternary complex (ChiX sRNA and chiP mRNA; 33.3 nM Hfq hexamer, TNK buffer): least stable
oligomeric state on SDS-PAGE [2]: forms a mixture of dodecamer, hexamer and monomer
